Values quoted from earlier work as cited in patent US10993983B2, “Cyclic peptide epitopes and small-molecule mimics for inducing autophagy” (TRUSTEES OF TUFTS COLLEGE, priority 2016, dated 2021).

Settings: background; cited from earlier work

## YGRKKRRQRRRGGTNVFNATFEIWHDGEFGT [Tat-Beclin 1]
  cytotoxicity, result in words: cytotoxic at high concentrations or following prolonged treatment
